Laboratory results as given in patent publication US20140335050A1, “METHODS, COMPOSITIONS, AND KITS FOR THE TREATMENT OF CANCER” (The General Hospital Corporation, priority 2011, published 2014).

Columns and labels:
Type in all cases: cell-based, human
U-87 MG glioma cell line = experiment: Antibody staining and flow cytometry (intracellular gp100; surface MHC Class I)
Method: (§1) Cells were fixed with 1% formaldehyde, permeabilized with 0.1% saponin, stained with monoclonal antibodies to melanocyte antigens. Antibodies were obtained with specificity for: MART-1 from Vector Labs (Burlingame, Calif.); gp100 HMB45 from DakoCytomation (Carpinteria, Calif.) and then visualized with goat anti-mouse FITC-conjugated secondary antibody from Invitrogen (Fredrick, Md.). The level of EGFP was determined by flow cytometry of unfixed cells that were washed and resuspended in 1×PBS.
(§2) Cells were plated at a density of 1×10^5 in 1 ml of medium in a 24-well plate and cultured for varying times as indicated in results. Typically, 3 days of culture in the presence of Hsp90 inhibitors was optimal for the functional studies performed. After incubation, cells were collected by trypsinization and then evaluated by flow cytometry.
(§3) Intracellular staining and flow cytometric analyses of cytoplasmic Melan-A/MART-1, and gp100 expression were performed as described previously. Cells were fixed with 1% formaldehyde, permeabilized with 0.1% saponin, stained with monoclonal antibodies to melanocyte antigens. Antibodies were obtained with specificity for: Melan-A/MART-1 from Vector Labs (Burlingame, Calif.); gp100/HMB45 from DakoCytomation (Carpinteria, Calif.) and then visualized with goat anti-mouse FITC-conjugated secondary antibody from Invitrogen (Frederick, Md.). The level of EGFP was determined by flow cytometry of unfixed cells washed and resuspended in 1×PBS. Surface staining of MHC Class I was carried out using the antibody W6/32 on cells harvested with Cell Stripper from MediaTech Inc. (Manassas, Va.) and carried out on ice.

[1] = test system: MALME-3M melanoma cell line; experiment: Antibody staining and flow cytometry (intracellular Melan-A/MART-1, gp100, TRP-2; surface MHC Class I)
Method: as §1, §2, §3

[2] = test system: EBV-19 B cell lymphoma cells; experiment: Surface antibody staining and flow cytometry (MHC Class I/II); conditions: three days, IFN-β 5000 Units/ml
Method: as §3
(§4) For surface staining of HLA Class I and II antigens, cells were harvested using CellStripper™ from Mediatech (Manassas, Va.). All staining steps were performed on ice. Following a first incubation with antibody to Class I (W6/32) or Class II (L243) for 30 minutes. Stained cells were washed twice with cold PBS and then stained with a goat anti-mouse FITC secondary antibody to allow for quantitative analysis by flow cytometry. For evaluation of cytoplasmic antigens, including Melan-A/MART-1 and gp100, cells were first fixed in paraformaldehyde and permeabilized with saponin as previously described. Staining for cytoplasmic antigens was carried out at room temperature (22° C.).

[3] = test system: Jurkat T cell lymphoma cells; experiment: as above
Method: as §3, §4

[4] = U-87 MG, 3 days, IFN-beta 5000 Units/ml, 17-AEP 0.5, PU-H71 0.3, CCT018159 5.0 μg/ml
[5] = MALME-3M, 3 days, IFN-beta 5000 Units/ml, 17-AEP 1.0, PU-H71 0.3, CCT018159 10.0 μg/ml

B1: IFN-β: IFN-β-1a (Avonex) obtained from Biogen-Idec; SEQ ID NO: 1 (protein, listed as Homo sapiens)
chain: MSYNLLGFLQRSSNFQCQKLLWQLNGRLEYCLKDRMNFDIPEEIKQLQQFQKEDAALTIYEMLQNIFAIFRQDSSSTGWNETIVENLLANVYHQINHLKTVLEEKLEKEDFTRGKLMSSLHLKRYYGRILHYLKAKEYSHCAWTIVRVEILRNFYFINRLTGYLRN
modifications: (1)..(166) IFN-beta-1a
- Class I, fold increase relative to untreated control (U-87 MG glioma cell line; [4]): 2.7 fold
- Class I, geometric mean of surface staining (W6/32) (U-87 MG glioma cell line; [4]): 73
- gp100, fold increase relative to untreated control (U-87 MG glioma cell line; [4]): 1.4 fold
- gp100, geometric mean of intracellular staining (U-87 MG glioma cell line; [4]): 36
- MHC Class I, geometric mean of surface staining (W6/32) (U-87 MG glioma cell line; U-87 glioma, three days, IFN-β 5000 Units/ml, PU-H71 0.075-0.3): 138
- Class I, fold increase relative to untreated control [1, 5]: 4.4 fold
- Class I, geometric mean of surface staining (W6/32) [1, 5]: 194
- MART-1, fold increase relative to untreated control [1, 5]: 1.1 fold
- MART-1, geometric mean of intracellular staining [1, 5]: 130
- TRP-2, fold increase relative to untreated control [1, 5]: 1.7 fold
- TRP-2, geometric mean of intracellular staining [1, 5]: 179
- gp100, fold increase relative to untreated control [1, 5]: 2.4 fold
- gp100, geometric mean of intracellular staining [1, 5]: 534
- MART-1, geometric mean of intracellular staining using anti-MART-1 ([1]; MALME-3M, IFN-β 5000 IU/ml for three days): 130
- MHC Class I, geometric mean of surface staining (W6/32) ([1]; MALME, three days, IFN-β 5000 Units/ml): 194
- MHC Class II, geometric mean of surface staining (L2443) ([2]; IFN-γ 100 ng/ml, PU-H71 0.3 mg/ml): 27
- MHC Class I, geometric mean of surface staining (W6/32) ([2]; IFN-γ 100 ng/ml, PU-H71 0.3): 314
- MHC Class I, geometric mean of surface staining (W6/32) ([2]; PU-H71 0.075-0.3): 219
- L243 (MHC Class II surface staining) ([3]; single agent): 1.0
- W6/32 (MHC Class I surface staining) ([3]; single agent): 31.1
- MHC Class I, geometric mean of surface staining (W6/32) ([3]; three days, IFN-β 5000 Units/ml, IFN-γ 100 ng/ml, PU-H71 0.3 μg/ml): 31
- MHC Class II, geometric mean of surface staining (L2443) ([3]; three days, IFN-β 5000 Units/ml, IFN-γ 100 ng/ml, PU-H71 0.3 mg/ml): 1
- MHC Class I, geometric mean of surface staining (W6/32) ([3]; three days, IFN-β 5000 Units/ml, PU-H71 0.075-0.3 μg/ml): 65
